Measured values reported in US9532941B2, “Method for treatment of hair loss with a combination of natural ingredients” (priority 2011, dated 2017).

Assay: Solubility of EGCG in updated formulation
Details: EGCG about 75 to 150 mg/ml in updated formulation

epigallocatechin-3-gallate [EGCG]
solubility in formulation: not to be feasible due to solubility problems
